Reference: US20240082282A1 (priority 2020, published 2024)

Tested on: B. burgdorferi N40
Assay: Mouse infection model (IP injection, oral gavage)
Details: 75 mg/kg twice per day intraperitoneally for 5 days; control 4/4

In the case of Hygromycin A, the “Mice with positive cultures or PCRs for B. burgdorferi” value was 0/4.
